How the values were obtained:
[1] = biological target: T1, Heat shock protein HSP 90-beta (Homo sapiens, UniProt P08238); assay: Specificity towards transformed SKBr3 cell line over normal lung tissue Hsp90; type: functional, cell-based
[2] = biological target: T1, Heat shock protein HSP 90-beta; assay: Specificity towards transformed SKBr3 cell line over normal heart tissue Hsp90; type: functional, tissue-based

Chains of the proteins cited; added tags and fusions are not shown.
UniProt P08238, whole entry: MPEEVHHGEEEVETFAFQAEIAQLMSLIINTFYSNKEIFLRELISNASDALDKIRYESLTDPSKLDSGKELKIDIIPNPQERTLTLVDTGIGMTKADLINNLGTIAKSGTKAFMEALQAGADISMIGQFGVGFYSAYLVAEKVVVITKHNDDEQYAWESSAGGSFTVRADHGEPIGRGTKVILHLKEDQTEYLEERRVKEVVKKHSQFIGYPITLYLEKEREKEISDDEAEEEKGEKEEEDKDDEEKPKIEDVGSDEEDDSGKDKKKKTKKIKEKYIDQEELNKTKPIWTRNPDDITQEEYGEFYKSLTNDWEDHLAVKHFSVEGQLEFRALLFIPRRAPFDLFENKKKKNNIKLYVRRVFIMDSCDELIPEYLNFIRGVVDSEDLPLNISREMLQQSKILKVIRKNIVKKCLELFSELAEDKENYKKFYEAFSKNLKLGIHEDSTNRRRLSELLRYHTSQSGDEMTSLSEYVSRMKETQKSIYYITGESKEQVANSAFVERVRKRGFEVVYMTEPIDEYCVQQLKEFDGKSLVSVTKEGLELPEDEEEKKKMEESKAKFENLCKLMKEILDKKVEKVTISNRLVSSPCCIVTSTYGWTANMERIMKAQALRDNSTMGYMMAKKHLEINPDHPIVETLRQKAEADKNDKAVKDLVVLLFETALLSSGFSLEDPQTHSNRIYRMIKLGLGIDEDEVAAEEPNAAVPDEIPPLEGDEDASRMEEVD

Ratio [1]: 48 | Ratio [2]: 140
Structure (SMILES): CC(C)NCCCn1c(Cc2cc3c(cc2I)OCO3)nc2c(N)nc(F)nc21

Reference: ChEMBL document CHEMBL1148576, “Identification of potent water soluble purine-scaffold inhibitors of the heat shock protein 90” (J Med Chem, 2006)
